Measured affinities in a library of Ab-95 light chain variants

Antigen: PDVDLGDISGINAS, a 14-residue peptide of the SARS-CoV-2 spike HR2 region.

Ab-95 is the parent antibody, in scFv form: VH, then a 15-residue (Gly4Ser)3 linker, then VL. The heavy chain is unchanged in all variants.
VH: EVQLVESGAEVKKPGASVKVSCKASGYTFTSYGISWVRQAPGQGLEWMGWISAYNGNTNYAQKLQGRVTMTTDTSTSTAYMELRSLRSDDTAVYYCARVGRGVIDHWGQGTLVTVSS
VL: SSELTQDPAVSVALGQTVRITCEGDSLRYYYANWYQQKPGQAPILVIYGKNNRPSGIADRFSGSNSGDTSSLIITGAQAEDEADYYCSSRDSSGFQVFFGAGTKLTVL

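In library AAYL52, one, two or three CDR residues were substituted; doubles and triples were drawn at random. The assay is AlphaSeq: two haploid yeast populations carry antibody and antigen on their surface. After mating in shaken culture at 30 °C for 16 h, diploids were selected and their barcode pairs sequenced. The ratio of observed to expected reads was calibrated, replicate by replicate, on BCL2-family standards whose Kd was known from biolayer interferometry. There are three technical replicates.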

Variants are written as CDR1, CDR2 and CDR3 of the light chain (limits as in the source). Parent: EGDSLRYYYAN, GKNNRPS, SSRDSSGFQVF. Values are log10 of the apparent Kd in nM; lower means stronger binding. Averages over replicates are reported, and they cover detected replicates only. Where no diploid with the target was found in that replicate, the entry reads "nd": below detection, most likely a poor binder, though not proof of it. Parent in this assay: reference entry 2.31, copy in this library 2.25. Background: pairings of library AAYL52 with three empty control strains gave a value in 28% of cases (median 3.91, 5th percentile 2.90). Values in that range, when seen in few replicates, are hard to tell from nonspecific mating. Also given: how often the same scFv was detected with the empty control strains, with their mean in brackets.

CDR-L1,CDR-L2,CDR-L3,"log10 Kd, replicates",mean log10 Kd (nM),control signals
ENDSLRKYYAN,GKNNGPS,SSRDSSGFQVF,nd / nd / nd,nd,1 of 9 (2.84)
EGDSLRYYYAN,AKLNRPS,SSRDSSGAQVF,nd / nd / nd,nd,3 of 9 (4.45)
EGDSNRYVYAN,GHNNRPS,SSRDSSGFQVF,3.60 / 3.83 / nd,3.72,3 of 9 (3.81)
EGDSLRYYYLW,GKNNRPS,SSRDSSGFQVF,nd / nd / 3.30,3.30,1 of 9 (3.34)
EGDSLRYYIAN,GKNNRPS,SSEDFSGFQVF,nd / nd / 3.65,3.65,4 of 9 (4.02)
EGDSLRYWYAN,GKNNRPS,GSRDSEGFQVF,3.91 / 3.71 / 3.13,3.58,3 of 9 (3.36)
EGDSCRYVYAN,GKNNRPS,SSRDSSGAQVF,nd / nd / nd,nd,1 of 9 (3.67)
EGDSLRYYYAN,GKNNRPS,SGRDSSLFQVF,2.97 / 3.49 / 3.39,3.28,1 of 9 (3.61)
EGDSLRYYYAN,GKNNYPS,PSRDSSGFRVF,4.47 / 4.57 / nd,4.52,3 of 9 (4.13)
EGDSLRYYYAN,KKVNRPS,SSRDTSGFQVF,3.16 / nd / nd,3.16,2 of 9 (4.13)
EGDSLRYYYAY,GKNNRPS,SYRDSSGFQVL,4.26 / 3.49 / nd,3.88,1 of 9 (4.98)
EGDSLRYYYAW,GKNNRPS,SSTDDSGFQVF,5.62 / nd / nd,5.62,3 of 9 (4.16)
EGDSLMYYYAN,GKNNRPS,SSRDSVGFQVK,2.89 / 2.55 / 2.32,2.59,3 of 9 (3.86)
EGDSLTYYYAN,RKNNRPS,SSRDSSGDQVF,5.00 / nd / nd,5.00,5 of 9 (4.12)
HGDSLRYYLAQ,GKNNRPS,SSRDSSGFQVF,nd / nd / 3.23,3.23,1 of 9 (3.25)
EGDALRYYYAN,GKNDRPS,SSRDSSGFIVF,2.15 / 2.36 / 2.16,2.22,2 of 9 (3.19)
EGASLRYYYAN,GRNNKPS,SSRDSSGFQVF,3.19 / 3.37 / 2.45,3.00,0 of 9
EGDSRRYYYAN,GKNNRWS,SSRDSSGFQVQ,3.46 / nd / nd,3.46,3 of 9 (4.58)
EGASLRYYYAN,GKNGYPS,SSRDSSGFQVF,nd / 3.14 / nd,3.14,2 of 9 (4.67)
EGDSLRYYYIN,GKNNRPS,ISRDSSGNQVF,nd / 3.89 / nd,3.89,1 of 9 (4.02)
EGDSLLYYYAN,GKNNRPS,SSCDSSQFQVF,3.89 / 2.78 / 2.78,3.15,4 of 9 (3.79)
EGDSNKYYYAN,GVNNRPS,SSRDSSGFQVF,3.24 / 5.44 / nd,4.34,2 of 9 (4.65)
EGDSLRYYYAN,GKNNVPS,SFRDSSGFRVF,3.84 / nd / 3.25,3.55,3 of 9 (4.42)
EGDSLRYYYAN,GKVNRPM,SSADSSGFQVF,nd / 4.93 / nd,4.93,4 of 9 (3.88)
EGDSLRYYYAN,GKENRPM,SRRDSSGFQVF,3.75 / nd / nd,3.75,1 of 9 (3.64)
EQDSLRYYVAN,GKNNRPS,SSRDSNGFQVF,nd / nd / nd,nd,1 of 9 (3.42)
EGDSLRYIYAN,GKNNRPS,SSRDSSTVQVF,nd / 4.21 / 4.28,4.24,2 of 9 (3.44)
ENDSLRYYYAE,GKNNRPS,SSRDSSGFQVR,nd / nd / nd,nd,1 of 9 (3.91)
EGPSLRYYYAN,GKNNRPG,SLRDSSGFQVF,nd / nd / nd,nd,0 of 9
EGDSLRYYYAN,GKNNRPF,SSRQSSKFQVF,nd / 3.58 / 4.28,3.93,0 of 9
EGDSLRYAYAN,GKNGRPS,SSRDSSGFSVF,1.72 / 1.58 / 1.17,1.49,4 of 9 (3.70)
EGDILRGYYAN,GKNNRRS,SSRDSSGFQVF,3.51 / 4.14 / 3.71,3.79,0 of 9

A selection of 4 entries from above:

CDR-L1,CDR-L2,CDR-L3,"log10 Kd, replicates",mean log10 Kd (nM),control signals
EGDSLTYYYAN,RKNNRPS,SSRDSSGDQVF,5.00 / nd / nd,5.00,5 of 9 (4.12)
EGDSLRYYYAN,GKVNRPM,SSADSSGFQVF,nd / 4.93 / nd,4.93,4 of 9 (3.88)
EGDSLRYIYAN,GKNNRPS,SSRDSSTVQVF,nd / 4.21 / 4.28,4.24,2 of 9 (3.44)
EGDSLRYAYAN,GKNGRPS,SSRDSSGFSVF,1.72 / 1.58 / 1.17,1.49,4 of 9 (3.70)

Source: Engelhart et al. 2022 (doi:10.1038/s41597-022-01779-4), MIT Lincoln Laboratory and A-Alpha Bio; data file from the FLAb repository.